This note sets out measurements from patent US8026218B2, “Bifunctional analgesic compounds for opioid receptor agonists and neurokinin-1 receptor antagonists” (The University of Arizona, priority 2006, dated 2011).

Amino acid sequences for entries named in this document (tags omitted).
UniProt P33535, whole entry: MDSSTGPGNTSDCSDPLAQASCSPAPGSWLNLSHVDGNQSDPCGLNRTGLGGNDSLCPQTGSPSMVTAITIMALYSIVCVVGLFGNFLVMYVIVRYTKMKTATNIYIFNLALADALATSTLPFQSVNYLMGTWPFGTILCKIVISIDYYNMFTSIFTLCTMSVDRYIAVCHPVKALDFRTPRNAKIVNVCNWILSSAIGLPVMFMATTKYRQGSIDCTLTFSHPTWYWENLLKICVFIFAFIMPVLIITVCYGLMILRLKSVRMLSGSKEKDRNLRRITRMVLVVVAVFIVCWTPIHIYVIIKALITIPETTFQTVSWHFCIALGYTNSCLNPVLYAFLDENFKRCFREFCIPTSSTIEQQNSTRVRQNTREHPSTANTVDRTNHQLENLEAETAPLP
UniProt P14600, whole entry: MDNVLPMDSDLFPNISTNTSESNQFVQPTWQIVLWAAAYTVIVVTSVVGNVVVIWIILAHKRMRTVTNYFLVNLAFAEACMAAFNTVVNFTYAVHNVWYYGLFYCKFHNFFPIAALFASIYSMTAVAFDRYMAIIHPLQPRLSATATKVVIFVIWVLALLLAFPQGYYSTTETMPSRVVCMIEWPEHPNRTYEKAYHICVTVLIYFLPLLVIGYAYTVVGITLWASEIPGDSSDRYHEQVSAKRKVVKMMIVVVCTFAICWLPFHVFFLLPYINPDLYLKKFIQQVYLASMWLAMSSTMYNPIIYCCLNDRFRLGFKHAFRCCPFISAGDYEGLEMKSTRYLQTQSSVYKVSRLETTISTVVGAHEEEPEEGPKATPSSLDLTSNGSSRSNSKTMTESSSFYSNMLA

Molecules are shown by their SMILES.

In general, IC50 refers to the point on the concentration scale where inhibition reaches its midpoint. A high value points to weaker potency in that assay. The Ki is the dissociation constant of the complex between target and ligand, obtained from inhibition or displacement. Higher therefore signals lower affinity.

In assay [1] the target is T1, rat μ opioid receptors (rMOR) (Rattus norvegicus, UniProt P33535).
T1 construct: expressed in transfected cells; host or cells: HN9.10 neuroblastoma cell line, pCDNA3, neomycin-selected clones
As to the kind of experiment: Radioligand competition binding, [3H]DAMGO, rMOR membranes. On the technique in general: Loss of bound radioactivity is the signal in a displacement assay; it reports binding, not function.

A further assay addresses T2, rat NK1 (rNK1) receptor (Rattus norvegicus, UniProt P14600).
T2 construct: expressed in transfected cells; host or cells: CHO (rNK-1/CHO cell line from Dr. James Krause)
Description: Radioligand competition binding, [3H]substance P, rNK1/CHO membranes. To be noted: Affinity rNK1 (Ki; nM), Table 39.

As for `CC(C)C[C@H](NC(=O)[C@@H]1CCCN1C(=O)[C@H](Cc1ccccc1)NC(=O)CNC(=O)[C@@H](C)NC(=O)[C@@H](N)Cc1ccc(O)cc1)C(=O)N[C@@H](Cc1c[nH]c2ccccc12)C(=O)NCc1ccccc1` [TY008, H-Tyr-DAla-Gly-Phe-Pro-Leu-Trp-NH-Bzl], in assay [1], the IC50 is 1.26 nM.

`CCCC[C@H](NC(=O)[C@H](Cc1ccccc1)NC(=O)CNC(=O)[C@@H](C)NC(=O)[C@@H](N)Cc1ccc(O)cc1)C(=O)N[C@@H](COC1O[C@H](CO)[C@@H](O)[C@H](O)[C@H]1O)C(=O)N[C@@H](CC(C)C)C(=O)N[C@@H](Cc1c[nH]c2ccccc12)C(=O)NCc1cc(C(F)(F)F)cc(C(F)(F)F)c1` (some centres unmarked) [TY044] came in with an inhibition constant (Ki) at rat NK1 (rNK1) receptor of 23.5 nM. This counts as double-digit nanomolar.
